Results on one compound are retold here after US20220226293A1, “TREATMENTS OF ANGIOEDEMA” (KALVISTA PHARMACEUTICALS LIMITED, priority 2019, published 2022).

The chains behind the UniProt entries cited, without tags or fusion partners. Residues count along the entry.
UniProt P03952, 20-390 partner limits assumed: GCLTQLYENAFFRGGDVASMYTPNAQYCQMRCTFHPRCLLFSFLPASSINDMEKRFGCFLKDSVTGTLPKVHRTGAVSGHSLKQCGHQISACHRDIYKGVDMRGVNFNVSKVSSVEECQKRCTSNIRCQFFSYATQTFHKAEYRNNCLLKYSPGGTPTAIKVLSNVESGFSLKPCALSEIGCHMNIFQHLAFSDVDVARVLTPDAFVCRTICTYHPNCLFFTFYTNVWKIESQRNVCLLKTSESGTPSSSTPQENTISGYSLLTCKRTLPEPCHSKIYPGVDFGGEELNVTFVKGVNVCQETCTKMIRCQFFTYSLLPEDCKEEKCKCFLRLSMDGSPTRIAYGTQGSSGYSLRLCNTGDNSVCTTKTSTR
UniProt P03952, 391-638 limits assumed: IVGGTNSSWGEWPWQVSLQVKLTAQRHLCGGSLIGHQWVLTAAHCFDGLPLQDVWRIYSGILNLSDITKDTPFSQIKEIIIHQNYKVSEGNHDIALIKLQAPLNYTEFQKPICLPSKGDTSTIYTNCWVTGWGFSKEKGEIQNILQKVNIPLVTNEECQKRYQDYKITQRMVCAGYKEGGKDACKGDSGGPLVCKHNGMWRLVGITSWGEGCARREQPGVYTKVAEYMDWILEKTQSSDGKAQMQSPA

The target in this experiment is T1, plasma kallikrein catalytic activity (Homo sapiens, UniProt P03952).
T1 construct: from tissue; host or cells: undiluted plasma of healthy male study participants after oral dosing, stimulated ex vivo with dextran sulfate
The experiment can be described thus: Phase 1 SAD / food effect: ex vivo PKa catalytic activity in DXS-stimulated undiluted plasma. The note with it: po, cohort 8 (600 mg oral), for 10 hr. The method, then:
This study was a randomized, double-blind, placebo-controlled single ascending dose (SAD) and crossover studies for food effect and capsule/tablet formulations.
PD measurements were determined in dextran sulfate (DXS) stimulated undiluted plasma using a fluorogenic enzyme assay and capillary based HK cleavage immunoassay.
The time until appearance of detectable amidolytic enzyme activity in DXS-stimulated plasma (lag time) was calculated from the catalytic activity assay. The detection sensitivity of the rate of catalytic activity in plasma based on using a Spark (Tecan) fluorimeter is a fluorescence increase to reach 1ΔF unit/sec.

The structures appear in SMILES notation.

As usually defined, the inhibition is the change of the read-out against control, counted positive when it falls. Read a high inhibition as a strong effect. `COCc1nn(Cc2ccc(Cn3ccccc3=O)cc2)cc1C(=O)NCc1nccc(OC)c1F` [Compound of Formula A, N-[(3-fluoro-4-methoxypyridin-2-yl)methyl]-3-(methoxymethyl)-1-({4-[(2-oxopyridin-1-yl)methyl]phenyl}methyl)pyrazole-4-carboxamide] yielded an inhibition at 600 mg of over 50%.
